Test results: ChEMBL document CHEMBL3779865, “Discovery of Benzo[cd]indol-2(1H)-ones as Potent and Specific BET Bromodomain Inhibitors: Structure-Based Virtual Screening, Optimization, and Biological Evaluation” (J Med Chem, 2016)

How the values were obtained:
Rattus norvegicus = assay: Apparent clearance during terminal phase in Sprague-Dawley rat at 5 mg/kg, iv; assay type: ADME, organism-based; settings: in vivo
[1] = Efflux ratio of apparent permeability from basolateral to apical side over apical to basolateral side in human Caco2 cells at 10 uM incubated for 1 hr by HPLC-MS/MS analysis; assay type: ADME, cell-based; settings: Caco-2

CLz/F (Rattus norvegicus): 132 mL/min/kg
efflux ratio at 1 h, 10 µM [1]: 2.4
SMILES: CCN1C(=O)c2cccc3c(NS(=O)(=O)c4cc(Br)ccc4OC)ccc1c23
